# PubChem BioAssay AID651629 (Sanford-Burnham Center for Chemical Genomics, 2012)
# Only a part is listed here, and it is no random draw. Active and inactive are the calls of the source.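 How the source made its calls: active means mean inhibition across replicates of 40% or more; inactive means mean inhibition below 40%.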
# Experiment: triacylglycerol accumulation inhibitors, retest, confirmation, cell-based, single concentration, Nile Red fluorescence, H9c2 (AID 651629);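 further: plate controls were DMSO only wells for no effect and Triacsin C treated wells for full effect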
# Settings: H9c2 lipid accumulation, at 12.5 µM, active compounds read high, cells loaded with 200 µM oleic acid
row,SMILES,inhibition
1,CC(=O)NC(SC(=S)N(CC(C)C)CC(C)C)C(Cl)(Cl)Cl (configuration not stated),active: 91.8%
2,CCC(C)N(CC(C)C)C(=S)SC(NC(C)=O)C(Cl)(Cl)Cl (configuration not stated),active: 90%
